Test results reported in ChEMBL document CHEMBL4311942, “Design of Trp-Rich Dodecapeptides with Broad-Spectrum Antimicrobial Potency and Membrane-Disruptive Mechanism” (J Med Chem, 2019).
In brackets after ≈: the same amount, converted by molar mass.

How the values were obtained:
[1] = test system: Staphylococcus aureus; test: Antibacterial activity against Staphylococcus aureus ATCC 25923 incubated for 18 to 24 hrs by broth microdilution method; type: functional
[2] = test system: Staphylococcus aureus; test: Antibacterial activity against Staphylococcus aureus ATCC 29213 incubated for 18 to 24 hrs by broth microdilution method; type: functional
[3] = test system: Salmonella typhimurium; test: Antibacterial activity against Salmonella enterica serovar typhimurium C77-31 incubated for 18 to 24 hrs by broth microdilution method; type: functional, Salmonella enterica subsp. enterica serovar Typhimurium
[4] = test system: Escherichia coli; test: Antibacterial activity against Escherichia coli UB1005 incubated for 18 to 24 hrs by broth microdilution method; type: functional
[5] = test system: Escherichia coli; test: Antibacterial activity against Escherichia coli ATCC 25922 incubated for 18 to 24 hrs by broth microdilution method; type: functional
[6] = test system: Staphylococcus epidermidis; test: Antibacterial activity against Staphylococcus epidermidis ATCC 12228 incubated for 18 to 24 hrs by broth microdilution method; type: functional
[7] = test system: Escherichia coli; test: Antibacterial activity against Escherichia coli 20411 clinical isolate incubated for 18 to 24 hrs by broth microdilution method; type: functional
[8] = test system: Pseudomonas aeruginosa; test: Antibacterial activity against Pseudomonas aeruginosa 25349 clinical isolate incubated for 18 to 24 hrs by broth microdilution method; type: functional
[9] = test system: Staphylococcus aureus; test: Antibacterial activity against Staphylococcus aureus 11011 incubated for 18 to 24 hrs by broth microdilution method; type: functional
[10] = test system: Staphylococcus aureus; test: Antibacterial activity against Staphylococcus aureus ATCC 29213 incubated for 2 hrs in presence of sodium phosphate buffer at pH 2 by broth microdilution method; type: functional; conditions: ATCC 29213, 2 h
[11] = test system: Escherichia coli; test: Antibacterial activity against Escherichia coli ATCC 25922 using preheated compound at 100 degreeC for 1 hr by broth microdilution method; type: functional; conditions: ATCC 25922, 1 h
[12] = test system: Escherichia coli; test: Antibacterial activity against Escherichia coli ATCC 25922 in presence of NaCl by broth microdilution method; type: functional
[13] = test system: Escherichia coli; test: Antibacterial activity against Escherichia coli ATCC 25922 in presence of KCl by broth microdilution method; type: functional
[14] = test system: Escherichia coli; test: Antibacterial activity against Escherichia coli ATCC 25922 in presence of NH4Cl by broth microdilution method; type: functional
[15] = test system: Escherichia coli; test: Antibacterial activity against Escherichia coli ATCC 25922 in presence of MgCl2 by broth microdilution method; type: functional
[16] = test system: Escherichia coli; test: Antibacterial activity against Escherichia coli ATCC 25922 in presence of ZnCl2 by broth microdilution method; type: functional
[17] = test system: Escherichia coli; test: Antibacterial activity against Escherichia coli ATCC 25922 in presence of CaCl2 by broth microdilution method; type: functional
[18] = test system: Escherichia coli; test: Antibacterial activity against Escherichia coli ATCC 25922 in presence of FeCl3 by broth microdilution method; type: functional
[19] = test system: Escherichia coli; test: Antibacterial activity against Escherichia coli ATCC 25922 in presence of 12.5% serum by broth microdilution method; type: functional
[20] = test system: Escherichia coli; test: Antibacterial activity against Escherichia coli ATCC 25922 in presence of 25% serum by broth microdilution method; type: functional
[21] = test system: Escherichia coli; test: Antibacterial activity against Escherichia coli ATCC 25922 in presence of 50% serum by broth microdilution method; type: functional
[22] = test system: Escherichia coli; test: Antibacterial activity against Escherichia coli ATCC 25922 incubated for 2 hrs in presence of sodium phosphate buffer at pH 2 by broth microdilution method; type: functional; conditions: ATCC 25922, 2 h
[23] = test system: Escherichia coli; test: Antibacterial activity against Escherichia coli ATCC 25922 incubated for 2 hrs in presence of sodium phosphate buffer at pH 4 by broth microdilution method; type: functional; conditions: ATCC 25922, 2 h
[24] = test system: Escherichia coli; test: Antibacterial activity against Escherichia coli ATCC 25922 incubated for 2 hrs in presence of sodium phosphate buffer at pH 10 by broth microdilution method; type: functional; conditions: ATCC 25922, 2 h
[25] = test system: Escherichia coli; test: Antibacterial activity against Escherichia coli ATCC 25922 incubated for 2 hrs in presence of sodium phosphate buffer at pH 12 by broth microdilution method; type: functional; conditions: ATCC 25922, 2 h
[26] = test system: Escherichia coli; test: Antibacterial activity against Escherichia coli ATCC 25922 in presence of H202 by broth microdilution method; type: functional
[27] = test system: Escherichia coli; test: Antibacterial activity against Escherichia coli ATCC 25922 in presence of NaBH4 by broth microdilution method; type: functional
[28] = test system: Staphylococcus aureus; test: Antibacterial activity against Staphylococcus aureus ATCC 29213 using preheated compound at 100 degreeC for 1 hr by broth microdilution method; type: functional; conditions: ATCC 29213, 1 h
[29] = test system: Staphylococcus aureus; test: Antibacterial activity against Staphylococcus aureus ATCC 29213 in presence of NaCl by broth microdilution method; type: functional
[30] = test system: Staphylococcus aureus; test: Antibacterial activity against Staphylococcus aureus ATCC 29213 in presence of KCl by broth microdilution method; type: functional
[31] = test system: Staphylococcus aureus; test: Antibacterial activity against Staphylococcus aureus ATCC 29213 in presence of NH4Cl by broth microdilution method; type: functional
[32] = test system: Staphylococcus aureus; test: Antibacterial activity against Staphylococcus aureus ATCC 29213 in presence of MgCl2 by broth microdilution method; type: functional
[33] = test system: Staphylococcus aureus; test: Antibacterial activity against Staphylococcus aureus ATCC 29213 in presence of ZnCl2 by broth microdilution method; type: functional
[34] = test system: Staphylococcus aureus; test: Antibacterial activity against Staphylococcus aureus ATCC 29213 in presence of CaCl2 by broth microdilution method; type: functional
[35] = test system: Staphylococcus aureus; test: Antibacterial activity against Staphylococcus aureus ATCC 29213 in presence of FeCl3 by broth microdilution method; type: functional
[36] = test system: Staphylococcus aureus; test: Antibacterial activity against Staphylococcus aureus ATCC 29213 in presence of 12.5% serum by broth microdilution method; type: functional
[37] = test system: Staphylococcus aureus; test: Antibacterial activity against Staphylococcus aureus ATCC 29213 in presence of 25% serum by broth microdilution method; type: functional
[38] = test system: Staphylococcus aureus; test: Antibacterial activity against Staphylococcus aureus ATCC 29213 in presence of 50% serum by broth microdilution method; type: functional
[39] = test system: Staphylococcus aureus; test: Antibacterial activity against Staphylococcus aureus ATCC 29213 incubated for 2 hrs in presence of sodium phosphate buffer at pH 4 by broth microdilution method; type: functional; conditions: ATCC 29213, 2 h
[40] = test system: Staphylococcus aureus; test: Antibacterial activity against Staphylococcus aureus ATCC 29213 incubated for 2 hrs in presence of sodium phosphate buffer at pH 10 by broth microdilution method; type: functional; conditions: ATCC 29213, 2 h
[41] = test system: Staphylococcus aureus; test: Antibacterial activity against Staphylococcus aureus ATCC 29213 incubated for 2 hrs in presence of sodium phosphate buffer at pH 12 by broth microdilution method; type: functional; conditions: ATCC 29213, 2 h
[42] = test system: Staphylococcus aureus; test: Antibacterial activity against Staphylococcus aureus ATCC 29213 in presence of H202 by broth microdilution method; type: functional
[43] = test system: Staphylococcus aureus; test: Antibacterial activity against Staphylococcus aureus ATCC 29213 in presence of NaBH4 by broth microdilution method; type: functional
[44] = test system: Escherichia coli; test: Antibacterial activity against ciprofloxacin-resistant Escherichia coli ATCC 25922 incubated for 18 to 24 hrs; type: functional

CC[C@H](C)[C@H](NC(=O)CN)C(=O)NCC(=O)N[C@@H](C)C(=O)N[C@H](C(=O)N[C@@H](CC(C)C)C(=O)N[C@@H](CCCCN)C(=O)N[C@H](C(=O)N[C@@H](CC(C)C)C(=O)N[C@H](C(=O)N[C@H](C(=O)NCC(=O)N[C@@H](CC(C)C)C(=O)N1CCC[C@H]1C(=O)N[C@@H](C)C(=O)N[C@@H](CC(C)C)C(=O)N[C@H](C(=O)N[C@@H](CO)C(=O)N[C@@H](Cc1c[nH]c2ccccc12)C(=O)N[C@H](C(=O)N[C@@H](CCCCN)C(=O)N[C@@H](CCCNC(=N)N)C(=O)N[C@@H](CCCCN)C(=O)N[C@@H](CCCNC(=N)N)C(=O)N[C@@H](CCC(N)=O)C(=O)N[C@@H](CCC(N)=O)C(N)=O)[C@@H](C)CC)[C@@H](C)CC)[C@@H](C)O)[C@@H](C)O)C(C)C)C(C)C [MELITTIN]
MIC [1]: 8 µM (≈ 22.8 µg/mL) | MIC [2]: 8 µM (≈ 22.8 µg/mL) | MIC [3]: 2 µM (≈ 5.69 µg/mL) | MIC [4]: 2 µM (≈ 5.69 µg/mL) | MIC [5]: 2 µM (≈ 5.69 µg/mL) | MIC [6]: 0.5 µM (≈ 1.42 µg/mL) | MIC [7]: 8 µM (≈ 22.8 µg/mL) | MIC [8]: 4 µM (≈ 11.4 µg/mL) | MIC [9]: 2 µM (≈ 5.69 µg/mL) | MIC [10]: 8 µM | MIC [11]: 2 µM (≈ 5.69 µg/mL) | MIC [12]: 4 µM | MIC [13]: 2 µM | MIC [14]: 2 µM | MIC [15]: 4 µM | MIC [16]: 4 µM | MIC [17]: 4 µM | MIC [18]: 2 µM | MIC [19]: 32 µM | MIC [20]: 32 µM | MIC [21]: 64 µM | MIC [22]: 2 µM | MIC [23]: 4 µM | MIC [24]: 4 µM | MIC [25]: 4 µM | MIC [26]: 4 µM | MIC [27]: 2 µM | MIC [28]: 8 µM (≈ 22.8 µg/mL) | MIC [29]: 8 µM | MIC [30]: 8 µM | MIC [31]: 8 µM | MIC [32]: 8 µM | MIC [33]: 8 µM | MIC [34]: 16 µM | MIC [35]: 8 µM | MIC [36]: 8 µM | MIC [37]: 8 µM | MIC [38]: 16 µM | MIC [39]: 8 µM | MIC [40]: 8 µM | MIC [41]: 8 µM | MIC [42]: 8 µM | MIC [43]: 8 µM | MIC [44]: 2 µM (≈ 5.69 µg/mL)
